pIC50: −log10 of the molar value. Where a name gives a salt, the structure may show the parent alone.
Tests used:
[1] = PDE10a-perfused brain permeability study (plasma and brain concentrations); details: male, Sprague-Dawley, rat
[2] = molecular target: Human recombinant PDE10A2 (Homo sapiens (Human), UniProt Q9Y233); test: In vitro hPDE10a (human recombinant PDE10A2, scintillation proximity assay); type: biochemical; details: human recombinant PDE10A2, 60 nM cAMP, 60 min at room temperature; read-out: hPDE10a2 IC50
Method: Human recombinant PDE10A2 was expressed in Sf9 cells, using a recombinant baculovirus construct containing the full length sequence containing a 6×His sequence following the start Met to allow metal affinity purification of the recombinant protein. Cells were harvested and the phosphodiesterase protein was purified by metal chelate chromatography on Ni-sepharose 6FF.
The affinity of the compounds of Formula (I) for phophodiesterases (PDE) was measured by a scintillation proximity assay (SPA). PDE Yttrium Silicate SPA beads allow PDE activity to be measured by direct binding of the primary phosphate groups of non-cyclic AMP or GMP to the beads via a complex iron chelation mechanism. The amount of bound tritiated product ([^3H]-AMP) is measured by liquid scintillation counting.
The compounds were dissolved and diluted in 100% DMSO in polystyrene plates to a concentration of 100-fold the final concentration in the assay. […] After sedimentation of the beads for 30 min, the radioactivity was measured in a Perkin Elmer Topcount scintillation counter and results were expressed as cpm. […]
Data were calculated as the percentage of inhibition of total activity measured in the absence of test compound (% control).

Chains of the proteins cited; added tags and fusions are not shown. Residues count along the entry.
UniProt Q9Y233, 267-1055: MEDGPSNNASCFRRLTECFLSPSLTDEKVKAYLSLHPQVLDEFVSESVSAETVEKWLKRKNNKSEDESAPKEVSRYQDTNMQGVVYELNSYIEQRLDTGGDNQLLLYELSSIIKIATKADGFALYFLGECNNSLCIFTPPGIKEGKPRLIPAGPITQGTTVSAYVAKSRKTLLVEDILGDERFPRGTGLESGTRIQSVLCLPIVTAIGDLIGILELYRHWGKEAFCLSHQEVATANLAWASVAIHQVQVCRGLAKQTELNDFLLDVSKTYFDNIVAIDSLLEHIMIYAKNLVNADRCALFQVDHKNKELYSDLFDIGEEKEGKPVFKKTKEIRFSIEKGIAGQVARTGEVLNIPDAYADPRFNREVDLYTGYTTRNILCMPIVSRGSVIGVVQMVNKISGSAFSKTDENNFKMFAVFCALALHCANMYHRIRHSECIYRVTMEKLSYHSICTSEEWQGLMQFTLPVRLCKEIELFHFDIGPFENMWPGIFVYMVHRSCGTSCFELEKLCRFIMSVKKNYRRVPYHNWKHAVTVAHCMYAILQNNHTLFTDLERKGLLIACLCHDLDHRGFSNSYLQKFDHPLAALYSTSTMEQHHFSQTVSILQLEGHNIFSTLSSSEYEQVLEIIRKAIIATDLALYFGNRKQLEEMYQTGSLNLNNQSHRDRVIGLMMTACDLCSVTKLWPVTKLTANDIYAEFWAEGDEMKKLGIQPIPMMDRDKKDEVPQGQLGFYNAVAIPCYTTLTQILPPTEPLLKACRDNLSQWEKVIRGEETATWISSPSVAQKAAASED

For `Nc1ccc(-c2cnc(N3CCOCC3)c3nc(COc4ccc5ccccc5n4)cn23)cn1` [Cpd 122, 5-(8-Morpholino-2-((quinolin-2-yloxy)methyl)imidazo[1,2-a]pyrazin-5-yl)pyridin-2-amine methane sulfonic acid salt], the Kp at 2 h [1] was 3.18 and the pIC50 [2] was 8.05.
